System in the first assay: not listed separately
The experiment in a line: Inhibition of MAdCAM-1/alpha-4 beta7-mediated cell adhesion to T-cell lymphoma, HUT78 cells at 500 uM. Format: functional.
Settings: not given
For `CC(=O)N[C@@H](CC(C)C)C(=O)N[C@@H](CC(=O)O)C(=O)N[C@H](C(=O)N[C@@H](CO)C(=O)N[C@@H](CC(C)C)C(N)=O)[C@@H](C)O`, the inhibition at 500 µM is 71%. `CC(=O)N[C@@H](CC(C)C)C(=O)N[C@@H](CC(=O)O)C(=O)N[C@H](C(=O)N[C@@H](CO)C(=O)N[C@@H](Cc1ccccc1)C(N)=O)[C@@H](C)O` displayed an inhibition at 500 µM of 86%. The same measure, in the same setting: for `CC(=O)N[C@@H](CC(C)C)C(=O)N[C@@H](CC(=O)O)C(=O)N[C@H](C(=O)N[C@@H](CO)C(=O)N[C@@H](CC(C)C)C(N)=O)C(C)C` the value was 85%; for `CC(=O)N[C@@H](CC(C)C)C(=O)N[C@@H](CC(=O)O)C(=O)N[C@@H](CO)C(=O)N[C@@H](CO)C(=O)N[C@@H](CC(C)C)C(N)=O`, 38%; for `CC(=O)N[C@@H](CC(C)C)C(=O)N[C@@H](CC(=O)O)C(=O)N[C@H](C(=O)N[C@H](C(=O)N[C@@H](CC(C)C)C(N)=O)[C@@H](C)O)[C@@H](C)O`, 100%.

For a further assay, the system named is HuT78. The experiment in a line: Compound was tested for inhibition of MAdCAM-1/alpha-4 beta-7 mediated cell adhesion to T-cell lymphoma, HUT78 cells. It counts as functional, cell-based. As to conditions: Homo sapiens.
On to `CC(=O)N[C@@H](CC(C)C)C(=O)N[C@@H](CC(=O)O)C(=O)N[C@H](C(=O)N[C@@H](CO)C(=O)N[C@@H](CC(C)C)C(N)=O)[C@@H](C)O`, for which the IC50 came out at 250 µM.

What is called inhibition is the share of the control response that was lost under treatment. The IC50 is the concentration needed to halve the response being measured. A lower IC50 goes with greater potency.

(Values after ChEMBL document CHEMBL1129205, “Small peptide inhibitors of 47 mediated MAdCAM-1 adhesion to lymphocytes” (Bioorg Med Chem Lett, 1996).)
